Assay results published in ChEMBL document CHEMBL1156168, “Eastern extension of azoles as non-nucleoside inhibitors of HIV-1 reverse transcriptase; cyano group alternatives” (Bioorg Med Chem Lett, 2010).

System: MT2
Test: Cytotoxicity against human MT2 cells by MTT assay
Type: cell-based

`N#Cc1ccc(Nc2ncc(Cc3c(F)cccc3F)o2)cc1Cl` was tested, and the CC50 was 11 µM.
